Measurements taken from patent US20170246130A1, “4-HYDROXYBENZOHYDARZIDE-A NEW CLASS OF ANGIOGENIC ENZYME THYMIDINE PHOSPHORYLASE INHIBITORS” (priority 2016, published 2017).

Amino acid sequences for entries named in this document (tags omitted). A change or cut given only in a name is not applied to a line headed by its entry.
UniProt P07650: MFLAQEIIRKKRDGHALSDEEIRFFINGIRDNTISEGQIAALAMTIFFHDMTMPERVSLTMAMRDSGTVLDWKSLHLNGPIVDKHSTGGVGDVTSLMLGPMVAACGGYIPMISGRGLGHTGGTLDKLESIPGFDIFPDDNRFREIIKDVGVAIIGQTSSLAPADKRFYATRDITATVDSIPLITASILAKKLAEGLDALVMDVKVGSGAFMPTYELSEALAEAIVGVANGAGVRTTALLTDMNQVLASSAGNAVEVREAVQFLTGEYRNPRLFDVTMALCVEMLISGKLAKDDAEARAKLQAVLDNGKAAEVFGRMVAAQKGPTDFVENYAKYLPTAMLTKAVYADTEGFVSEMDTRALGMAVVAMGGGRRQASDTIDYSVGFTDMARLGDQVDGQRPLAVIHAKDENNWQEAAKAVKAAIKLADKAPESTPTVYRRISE

What was measured:
[1] = target: T1, thymidine phosphorylase (E. coli) (Escherichia coli, UniProt P07650); assay: In-vitro thymidine phosphorylase inhibition assay (spectrophotometric); type: biochemical; settings: recombinant E. coli TP, thymidine substrate, pH 7.0, 30° C., 290 nm; read-out: IC50 (μM ± S.E.M.), thymidine phosphorylase inhibition
T1 construct: purchased Sigma Aldrich, USA; host or cells: Escherichia coli
Procedure: Enzyme thymidine phosphorylase (E. coli) and its substrate thymidine were purchased from Sigma Aldrich, USA, and inhibitor 7-deazaxanthine was purchased from Santa Cruze Biotechnology Inc., USA. In vitro studies on thymidine phosphorylase were carried out in 96-well microtiter plate using Spectra Max-340 and Spectra Max-384 spectrophotometers (Molecular Devices, CA, USA). Deionized water used for buffer preparation was collected by Simplicity Water Purification System (Milipore).
Since human TP is not commercially available, we used commercially available recombinant E. coli TP (expressed in Escherichia coli) enzyme. Primary sequence of TP is mostly conserved throughout the evolution as mammalian TP share 39% sequence similarity with TP of E. coli. The mammalian enzyme also shared 65-70% similarity with the active site residues of E. coli TP enzyme (Bronckaers et al., 2009). Assay for thymidine phosphorylase inhibition was performed spectrophotometrically, following method of Bera et al. with some modifications (Bera et al., 2013). […]
The enzyme inhibitory activities were calculated using the following formula: […]
The IC50 of the compounds was calculated using EZ-Fit Enzyme Kinetic Program (Perrella Scientific Inc., Amhrest, U.S.A.).

[2] = target: T1, thymidine phosphorylase (E. coli); assay: Kinetic (mechanistic) studies on thymidine phosphorylase; type: biochemical; settings: thymidine as variable substrate; secondary re-plot, confirmed by Dixon plot; read-out: Ki (μM ± S.E.M.), dissociation constant
Procedure: These studies disclose the mechanism of inhibitor binding to enzyme. Kinetic studies were carried out using thymidine as variable substrate. […] This was deduced from Lineweaver Burk plot. This compound therefore, interacted either with the amino acids of hydrophobic pocket of the enzyme or at allosteric site of the enzyme. […] Uncompetitive inhibitors encountered enzyme only when enzyme-substrate complex has been formed, enzyme-substrate complex formation was proposed to induce a conformational changes in the enzyme which facilitate the binding of inhibitor. Uncompetitive inhibitor causes decrease in both Km and Vmax values of the enzyme (Figure-6). […] Ki values were determined by secondary re-plot, and confirmed by Dixon plot.
Kinetic studies were carried out to find the mechanism of inhibitor action. Inhibitor could bind with enzyme in multiple ways such as in competitive, non-competitive, mixed or uncompetitive way. […] The reactions was then initiated by adding different concentrations (0.1875 mM-1.5 mM) of substrate (thymidine) and the resulting degradation of thymidine was measured continuously at 290 nm for 10 min on a ELISA plate reader. […]
Line-weaver Burk plot was plotted to determine the type of inhibition. […] Ki values were determined by secondary re-plot, and reconfirmed by Dixon plot. The Ki was determined by non-linear regression equation.

`Oc1nc(O)c2cc[nH]c2n1` [7-Deazaxanthine, 2,4-Dihydroxypyrrolo[2,3-d]pyrimidine, reference compound] was tested. Which IC50 [1] did it give?
Its IC50 is 41 ± 1.63 µM.

And the Ki [2]?
The Ki was 45.66 ± 0.0009 µM.
